Test system: albumin and/or SHBG
Design: species or system human

Structure (SMILES): O=C([O-])c1ccccc1O.[Na+] [sodium salicylate]
- effect on protein-bound testosterone and tracer: displace testosterone from albumin and/or SHBG

Reference: patent publication US6756233B1 (dated 2004)
